Chains of the proteins cited; added tags and fusions are not shown.
UniProt P61793, whole entry: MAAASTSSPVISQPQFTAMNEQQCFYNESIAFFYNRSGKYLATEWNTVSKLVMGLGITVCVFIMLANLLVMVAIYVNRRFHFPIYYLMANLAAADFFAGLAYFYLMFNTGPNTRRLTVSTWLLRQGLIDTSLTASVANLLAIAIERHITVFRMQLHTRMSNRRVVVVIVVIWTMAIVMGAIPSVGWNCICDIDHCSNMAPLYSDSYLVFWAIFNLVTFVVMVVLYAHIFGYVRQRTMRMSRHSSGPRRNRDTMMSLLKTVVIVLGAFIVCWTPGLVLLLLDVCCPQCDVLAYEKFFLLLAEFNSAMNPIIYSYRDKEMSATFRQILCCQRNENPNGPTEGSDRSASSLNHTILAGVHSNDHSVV
UniProt Q9UBY5, whole entry: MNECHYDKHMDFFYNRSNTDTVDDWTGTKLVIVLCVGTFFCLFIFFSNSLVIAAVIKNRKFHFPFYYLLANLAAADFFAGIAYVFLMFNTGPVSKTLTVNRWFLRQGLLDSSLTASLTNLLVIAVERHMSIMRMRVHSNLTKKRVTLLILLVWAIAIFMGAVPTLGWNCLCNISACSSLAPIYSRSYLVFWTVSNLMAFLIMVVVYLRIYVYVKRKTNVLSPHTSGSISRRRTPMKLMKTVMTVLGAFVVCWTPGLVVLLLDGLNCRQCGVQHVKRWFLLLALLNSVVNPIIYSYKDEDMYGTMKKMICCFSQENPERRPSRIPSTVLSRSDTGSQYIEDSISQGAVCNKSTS
UniProt Q9HBW0, whole entry: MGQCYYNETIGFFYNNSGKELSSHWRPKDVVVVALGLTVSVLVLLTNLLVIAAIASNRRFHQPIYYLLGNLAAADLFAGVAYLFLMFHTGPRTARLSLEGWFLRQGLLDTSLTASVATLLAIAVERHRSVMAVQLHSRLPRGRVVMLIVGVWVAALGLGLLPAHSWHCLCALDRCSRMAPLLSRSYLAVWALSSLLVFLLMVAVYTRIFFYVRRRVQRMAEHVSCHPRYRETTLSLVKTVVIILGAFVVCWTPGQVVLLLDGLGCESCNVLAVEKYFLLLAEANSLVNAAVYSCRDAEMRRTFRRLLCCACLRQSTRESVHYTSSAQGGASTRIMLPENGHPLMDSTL

In US7820703B2, “Lysophosphatidic acid receptor selective antagonists” (University of Virginia Patent Foundation, priority 2004, dated 2010):

What was measured:
LPA1 receptor = LPA1 receptor (Mus musculus, UniProt P61793); assay: antagonism of LPA-evoked GTP[γ35S] binding at LPA1; assay type: biochemical; conditions: for antagonist activity at LPA1, in words: GTP[γ35S] binding
LPA3 receptor = LPA3 receptor (Homo sapiens, UniProt Q9UBY5); assay: antagonism of LPA-evoked GTP[γ35S] binding at LPA3
mouse LPA1 = mouse LPA1 (Mus musculus, UniProt P61793); assay: cAMP accumulation in RH7777 cells expressing LPA1; conditions: RH7777 cells stably expressing LPA1
human LPA2 = human LPA2 (Homo sapiens, UniProt Q9HBW0); assay: antagonism of LPA-evoked GTP[γ35S] binding at LPA2

Compound	antagonist activity at LPA1, in words (LPA1 receptor)	antagonist activity at LPA3, in words (LPA3 receptor)	Ki (LPA1 receptor; read-out: LPA1 Ki, determined by Schild regression) [nM]	block of the inhibition of forskolin-induced increases in cAMP levels (mouse LPA1)	antagonist activity at LPA2, in words (human LPA2)
CCCCCCCC/C=C\CCCCCCCC(=O)N[C@@H](COP(=O)(O)O)Cc1ccc(OCc2ccccn2)cc1	improves on the antagonist activity of 26 by approximately one log order	improves on the antagonist activity of 26 by approximately one log order	–	–	–
CCCCCCCC/C=C\CCCCCCCC(=O)N[C@@H](Cc1ccc(OCc2ccccc2)cc1)CC(O)P(=O)(O)O (stereo partly drawn)	modest inhibitory activity	–	–	–	–
CCCCCCCC/C=C\CCCCCCCC(=O)N[C@@H](COP(=O)(O)O)Cc1ccc(OCc2cc(OCCOC)ccn2)cc1	–	–	35	–	–
CCCCCCCC/C=C\CCCCCCCC(=O)N[C@@H](COP(=O)(O)O)Cc1ccc(OCc2cc(OC)ccn2)cc1	–	particularly potent and LPA3-selective	–	–	–
CCCCCCCC/C=C\CCCCCCCC(=O)N[C@H](COP(=O)(O)O)Cc1ccc(OCc2ccccc2)cc1	surmountable antagonist	surmountable antagonist	–	inhibited	lack of antagonist activity
